Test [1] addresses Sigma non-opioid intracellular receptor 1 (Cavia porcellus, UniProt Q60492). As to the kind of experiment: Displacement of [3H]-(+)-pentazocine from sigma-1 receptor in guinea pig brain cortex membranes. The class given is cell membranes. Conditions: Cerebral cortex.
The target in test [2] is Mu-type opioid receptor (Homo sapiens, UniProt P35372). The conditions noted are these: cho-k1.
In test [3] the target is Kappa-type opioid receptor (Cavia porcellus, UniProt P41144). The experiment in a line: Displacement of [3H]U-69593 from kappa opioid receptor in guinea pig brain membranes after 2 hrs by scintillation counting analysis. The format is cell membranes, Membrane. For orientation: Displacement assays read how much labelled ligand stays bound in the presence of the test substance.

Protein sequences, listed by entry. Tags and fused reporters are not part of them. Lines headed by an entry give the natural chain unless they say otherwise; changes in a name come on top.
UniProt Q60492, whole entry, looked up: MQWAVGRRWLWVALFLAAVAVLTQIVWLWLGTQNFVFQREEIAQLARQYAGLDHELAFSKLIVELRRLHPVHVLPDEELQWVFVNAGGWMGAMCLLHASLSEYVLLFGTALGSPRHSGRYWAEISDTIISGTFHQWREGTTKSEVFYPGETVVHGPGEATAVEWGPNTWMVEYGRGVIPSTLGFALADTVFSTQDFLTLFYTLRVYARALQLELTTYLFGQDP
UniProt P35372, whole entry, looked up: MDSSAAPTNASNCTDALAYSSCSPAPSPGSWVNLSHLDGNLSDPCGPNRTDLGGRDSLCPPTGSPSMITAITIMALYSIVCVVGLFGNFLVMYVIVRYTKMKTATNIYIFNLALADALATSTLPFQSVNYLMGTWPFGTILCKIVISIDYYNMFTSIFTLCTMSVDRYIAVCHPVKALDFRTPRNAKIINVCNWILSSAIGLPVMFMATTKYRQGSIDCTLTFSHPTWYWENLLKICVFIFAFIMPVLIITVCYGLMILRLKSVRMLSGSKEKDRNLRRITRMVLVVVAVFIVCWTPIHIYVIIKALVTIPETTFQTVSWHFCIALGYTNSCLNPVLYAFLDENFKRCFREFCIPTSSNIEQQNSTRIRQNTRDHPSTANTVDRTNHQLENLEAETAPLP
UniProt P41144: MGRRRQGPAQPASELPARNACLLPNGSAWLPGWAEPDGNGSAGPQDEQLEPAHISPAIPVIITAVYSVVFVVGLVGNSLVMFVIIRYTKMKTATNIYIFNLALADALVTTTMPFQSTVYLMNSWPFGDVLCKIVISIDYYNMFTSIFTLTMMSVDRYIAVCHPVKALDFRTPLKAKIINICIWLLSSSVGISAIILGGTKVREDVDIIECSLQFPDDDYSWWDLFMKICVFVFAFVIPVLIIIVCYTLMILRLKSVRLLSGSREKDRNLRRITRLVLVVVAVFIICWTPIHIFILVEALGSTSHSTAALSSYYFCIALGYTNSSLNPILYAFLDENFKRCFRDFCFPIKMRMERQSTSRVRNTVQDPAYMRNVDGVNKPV

The structures appear in SMILES notation. Several values for one entry are separate records, joined by “and”; a condition that tells them apart may be missing. Identical values can stand only once.

The Ki is a dissociation constant, usually derived from enzyme kinetics or from competition with a known ligand.

Consider `CN1CCN(C(=O)Cc2ccc(Cl)c(Cl)c2)C2C1CCCC2N1CCC(O)C1` (stereo unspecified), for which the Ki amounted to 818 nM in test [1], 6000 nM in test [2] and 5.4 nM in test [3].

`O=C(Cc1ccc(Cl)c(Cl)c1)N1CCN(Cc2cnc[nH]2)C2CCCC(N3CCCC3)C21` (stereo unspecified) had a Ki in test [3] of 4.3 nM.

`CCC(=O)N1CCN(C(=O)Cc2ccc(Cl)c(Cl)c2)C2C(N3CCCC3)CCCC21` (stereo unspecified): the inhibition constant Ki in test [3] is 26 nM.

With `O=C(O)CC(=O)N1CCN(C(=O)Cc2ccc(Cl)c(Cl)c2)C2C(N3CCCC3)CCCC21` (stereo unspecified), in test [3], the affinity corresponds to a Ki of 169 nM.

Consider `O=C(Cc1ccc(Cl)c(Cl)c1)N1CCNC2CCCC(N3CCC(O)C3)C21` (stereo unspecified), for which the inhibitory constant (Ki) is 4900 nM in test [2]; 8.7 nM and 2.8 nM and 16 nM in test [3].

Turning to `CC(=O)N1CCN(C(=O)Cc2ccc(Cl)c(Cl)c2)C2C(N3CCCC3)CCCC21` (stereo unspecified), the values for the inhibition constant Ki in test [2] and in test [3] were 2800 nM and 24 nM, respectively.

The molecule `O=C(O)CCC(=O)N1CCN(C(=O)Cc2ccc(Cl)c(Cl)c2)C2C(N3CCCC3)CCCC21` (stereo unspecified) displayed a Ki in test [3] of 136 nM.

As for `O=C(Cc1ccc(Cl)c(Cl)c1)N1CCNC2CCCC(N3CCCC3)C21` (racemic), the inhibition constant Ki came to 2800 nM in test [2] and 2.1 nM in test [3].

Regarding `CN1CCN(C(=O)Cc2ccc(Cl)c(Cl)c2)C2C1CCCC2N1CCCC1` (stereo unspecified), the Ki in test [2] came out at 5100 nM; in test [3], 2.7 nM.

Turning to `CCOC(=O)N1CCN(C(=O)Cc2ccc(Cl)c(Cl)c2)C2C(N3CCCC3)CCCC21` (stereo unspecified), the affinity in test [3] corresponds to a Ki of 15 nM.
